Measurements as given in PubChem BioAssay AID1465 (SRMLSC, 2008).
The other results are listed elsewhere or left out. Results with a measured potency or affinity are listed apart. Some tests of the compounds listed are not included; inactive here does not mean inactive elsewhere. Active and inactive are the calls of the source.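 Rule for the calls: active = fold induction of absorbance versus untreated yeast above a set limit, then at least 30% activation at any dose in follow-up; inconclusive = repeats straddling the limit, or above it without dose testing; inactive = fold induction below the set limit.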

Assay: enhancers of respiration in Yfh1-depleted yeast, dose response, Friedreich's ataxia, plus single-dose screen (AID 1465)
Settings: S. cerevisiae Yfh1-off respiration, WST-1 reduction, 72 h; at 50 µM; stronger effect = higher value

Row | Compound | fold induction
1 | O=C(NCC1(N2CCCCC2)CCCCC1)c1cc([N+](=O)[O-])ccc1Cl | inactive: 0.87
2 | CCN(CC)CC(C)C(C)OC(=O)C(O)(c1ccccc1)c1ccccc1 (stereo unspecified) | inactive: 1.04
3 | CC(C)N1C(=O)CC2(CCN(CCOC(=O)C(O)(c3ccccc3)c3ccccc3)CC2)C1=O | inactive: 1.06
4 | Cc1ccccc1C(=O)NCC1(N2CCCCC2)CCCCC1 | inactive: 1.1
5 | CN(C)C1CCCC1OC(=O)C(O)(c1ccccc1)c1ccccc1 (stereo unspecified) | inactive: 0.92
6 | C=CCN1CCN(CCOC(=O)C(O)(c2ccccc2)c2ccccc2)CC1 | inactive: 1.13
7 | CCN1CCCC(OC(=O)C2(O)c3ccccc3C=Cc3ccccc32)C1 (stereo unspecified) | inactive: 0.99
8 | COc1cccc(C(=O)NCC2(N3CCCCC3)CCCCC2)c1 | inactive: 0.95
9 | O=C(OC1CN2CCC1CC2)C(CO)(c1ccccc1)c1ccccc1 (stereo unspecified) | inactive: 0.95
10 | COc1ccc(Br)c(C(=O)NCC2(N3CCCCC3)CCCCC2)c1 | inactive: 1
11 | CN(C)c1cccc(C(=O)NCC2(N(C)C)CCCCC2)c1 | inactive: 1.12
